For one molecule, Activity results are on record in ChEMBL document CHEMBL5052829, “Arf6 inhibitors and related methods” (2021).

A short description of this data set: Toxicity in Plasmodium berghei ANKA infected mouse model of cerebral malaria assessed as decrease in animal mortality at 42.75 mg/kg, ip administered daily for 11 days. It counts as organism-based. To be noted: in vivo, 264 h, time 11 day.

With `NCCCC[C@H](N)C(=O)Oc1cc([N+](=O)[O-])ccc1-c1cc(=O)[nH]c2c(-c3ccc(Cl)cc3)c(Cc3ccccc3)nn12`, the outcome was Active.
